Here are results for one substance from patent US20140057993A1, “Prophylaxis and Treatment of Enteropathogenic Bacterial Infection” (NORTHSHORE UNIVERSITY HEALTHSYSTEM, priority 2011, published 2014).

The data set deals with C. rodentium. The note with it: mouse, in vivo.

For the substance polyethylene glycol [PEG], the induction of diarrhea result is “did not induce diarrhea” and the “stool pellet formation in colon” value was “able to form stool pellets”.
